# Antibody variant affinities, Ab-14 heavy chain, assay B

Target peptide (SARS-CoV-2 spike, HR2 region): PDVDLGDISGINAS

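The parent was found by panning a naive human phage display library on the peptide. The variants were designed computationally from a first round of random CDR variants and then made and measured. Several design methods are mixed in this list. AlphaSeq pools MATa yeast showing the antibodies with MATalpha yeast showing the peptide. After mating in shaken culture at 30 °C for 16 h, diploids were selected and their barcode pairs sequenced. The ratio of observed to expected reads was calibrated, replicate by replicate, on BCL2-family standards whose Kd was known from biolayer interferometry. There are six technical replicates.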

Ab-14 is the parent antibody, in scFv form: VH, then the linker GGGGSGGGGSGGGGS, then VL. The light chain is unchanged in all variants.
VH: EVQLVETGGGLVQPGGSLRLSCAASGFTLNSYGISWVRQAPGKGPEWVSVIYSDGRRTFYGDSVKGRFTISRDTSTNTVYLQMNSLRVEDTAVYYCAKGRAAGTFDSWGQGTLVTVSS
VL: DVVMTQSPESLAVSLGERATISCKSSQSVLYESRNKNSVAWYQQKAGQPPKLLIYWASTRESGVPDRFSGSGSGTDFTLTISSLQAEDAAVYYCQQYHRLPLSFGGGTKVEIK

The parent's heavy chain CDRs are GFTLNSYGIS, VIYSDGRRTFYGDSVK, GRAAGTFDS; each variant's own CDRs replace them letter for letter. Each Kd is an estimate from the mating assay, the geometric mean of the replicates in which the pair was seen; lower is stronger. "not detected" means that the variant was in the library but no mating with the target was seen in any replicate; the authors take this as a sign of poor binding, and no number exists. Entries are sorted by rising average, undetected variants last. The range of this assay differs from that of the first round, and the authors advise against merging the two.

CDR-H1,CDR-H2,CDR-H3,Kd,detected,signal with controls
GFDLNEYGIS,VIYADGVRSAYADSVK,GNQAGTFDV,210 pM,6/6,1/18
GFDLDEYGIS,VIYADGRRTAYSDSVK,GNTAGTFDQ,250 pM,6/6,0/18
GFDLNEYGIS,VIYADGKRTAYADSVK,GNVAGTFDK,280 pM,6/6,1/18
GFDLDEYGIS,VIYADGMRTAYADSVK,GNIAGTFDV,320 pM,6/6,0/18
GFDLNEYGIS,VIYADGMRTAYADNVK,GQVAGTFDV,430 pM,6/6,0/18
GFDLNEYGIS,VIYADGMRTAYIDSVK,GNQAGTFDI,500 pM,6/6,0/18
GFDLNEYGIS,VIYADGSRTAYTDSVK,GNVAGTFDV,520 pM,6/6,0/18
GFELNSYGIS,VIYADGRRTFYGDSVK,GREAGTFDS,560 pM,6/6,0/18
GFDLNEYGIS,VIYADGRRTAYSDSVK,GHAAGTFDS,570 pM,6/6,1/18
GFDLNEYGIS,VIYADGMRTAYADSVK,GNEAGTFDV,610 pM,6/6,0/18
GFSLNSYGIS,VIYADGRRTFYGDSVK,GRAAGTFDD,630 pM,6/12,1/36
GFDLEDYGIS,VIYADGMRTAYSDSVK,GETAGTFDL,640 pM,6/6,0/18
GFELNSYGIS,VIYSDGIRTFYGDSVK,GRTAGTFDS,680 pM,6/6,0/18
GFDLNEYGIS,VIYADGKRTQYIDSVK,GETAGTFDS,700 pM,6/6,0/18
GFDLDEYGIS,VIYADGQRTAYSDSVK,GETAGTFDQ,850 pM,6/6,0/18
GFDIDEYGIS,VIYADGRRTFYADSVK,GTNAGTFDE,1.0 nM,6/6,0/18
GFDLNSYGIS,VIYSDGRRTFYKDSVK,GQAAGTFDA,1.2 nM,6/6,1/18
GFDLNSYGIS,VIYSDGRRTFYHDSVK,GKEAGTFDS,1.4 nM,6/6,0/18
GFDLNEYGIS,VIYADGQRTFYADSVK,GQNAGTFTL,1.7 nM,6/6,0/18
GFDLNSYGIS,VIYSDGRRTFYGDSVK,GRLAGTFDT,2.1 nM,6/6,1/18
GFHLNSYGIS,VIYADGRRTFYGDSVK,GRAAGTFDS,3.2 nM,6/6,0/18
GFDLNEYGIS,VIYADGRRTFYADSVK,GEIAGTFDQ,4.2 nM,6/6,1/18
GFELNSYGIS,VIYSDGRRTFYTDDVK,GNAAGTFDS,4.3 nM,6/6,0/18
MFDLNTYGIS,VIYSDGRRTAYGDSVK,GRAAGTFDS,4.7 nM,6/6,0/18
GFTLNSYGIS,VIYSDGKRTFYGDSVK,GQTAGTFDT,5.5 nM,6/6,0/18
GFNLNSYGIS,VIYSDGRRTFYKDSVK,GRQAGTFDS,11 nM,5/6,0/18
GFTLDSYGIS,VIYSDGRRTFYGDSVK,GRTAGTFDK,12 nM,6/6,0/18
GFALNEYGIS,VIYSDGRRTFYGDSVK,GRHAGTFDS,12 nM,3/6,0/18
GFSLNSYGIS,VIYSDGRRTFYGDQVK,GRNAGTFDS,12 nM,6/6,0/18
GFDLNSYGIS,VIYSDGRRTFYADSVK,GNVAGTFDS,14 nM,5/6,0/18
GFSLNSYGIS,VIYSDGRRTFYGDSVK,GWAAGTFDS,17 nM,6/6,0/18
GFTLNQYGIS,VIYSDGRRTFYGDDVR,GRAAGTFDS,20 nM,2/6,0/18
GFNLNSYGIS,VIYSDGRRTFYGDSVK,GRLAGTFDS,22 nM,6/6,2/18
GWTLNEYGIS,VIYSDGRRTFYGDSVK,GRTAGTFDG,23 nM,1/6,0/18
GFTLNSYGIS,VIYSDGRRTFYDDSVK,GQLAGTFDK,23 nM,6/6,1/18
GFELNSYGIS,VIYSDGRRTFYGDHVK,GRTAGTFDT,26 nM,6/6,0/18
GFTLNSYGIS,VIYSDGQRTFYGDSVK,GQAAGTFDS,28 nM,5/6,0/18
GFTLNDYGIS,VIYSDGRRTQYIDDVK,GRAAGTFDS,46 nM,6/6,0/18
GFWLNEYGIS,VIYSDGRRTFYGDSVK,GRQAGTFDT,49 nM,6/6,1/18
GADIEEYGIS,VIYADGVRKSYVNSFK,GEVGGTFTN,190 nM,1/6,0/18
GFDINEYGIS,VIYADGQREYYAESVK,GFNQTINLV,830 nM,1/6,0/18
GFTLNSYGIS,VIYSDGRRTFYSDSVK,GQGAGTFDS,3.4 µM,1/6,0/18
GFTLNSYGIS,VIYADGRRTFYGDDVK,GKAAGTFKS,not detected,0/6,0/18
GANLNSYGIS,VIYSDGRRTFYGDSVK,GRIADTFDS,not detected,0/6,0/18
GFDINEYGIS,VIYADGNRIAYQDQVK,GFNEGSFVI,not detected,0/6,0/18
GFTLNSYGRS,VIYSDGRRTFYGDSVK,GRKAGTFDS,not detected,0/6,0/18
GFDINEYGIS,VIYADGSRTAYANTVK,GQWGCVFYV,not detected,0/6,0/18
GFDLNSYGIS,VIYSCGRMFFYGDGVK,GRAAGWFNS,not detected,0/6,0/18
GKSLDEYGIS,VIYADGMRTMYTDKFK,GKLTAGSFL,not detected,0/6,0/18
DFNLNEYGIS,VIYADGQRASYDDKVK,GQIGGTFND,not detected,0/6,2/18
GFALNSYGIS,VIYSDGRRTFYGDSVK,GRVACTFDS,not detected,0/6,0/18
GFDLDEYGIS,VIYADGMRSKYADSVK,GTNGGTIEA,not detected,0/6,0/18
GRTQNSYGIS,VIYSDGRRTFYSDSVK,GRAGGTFDS,not detected,0/6,0/18
GFTLNSYGIS,VIYSDGRRTFYGDSVK,GDASGTFDS,not detected,0/6,0/18
GFTLQSYGIS,VIYSDGRRTFYGDSVK,TDAAGTFDS,not detected,0/6,0/18
GFTLESYGIS,VIYSDGRRTFYGDSVK,GRAAGTFTK,not detected,0/6,0/18
GFDLMEYGVS,VIYADGQRAFYTDSVK,GKGAGTALI,not detected,0/6,0/18
GYDIDEYGIS,VIYADGQRTAYQNNVK,GEQDGLMTY,not detected,0/6,0/18
GFTLNSYGIS,VIYSYGRRTFYDDSVK,GQLAGTFDS,not detected,0/6,0/18
GFDIEEYGIS,VIYADGKRAAYADSVK,GENMDIMTD,not detected,0/6,0/18
GFTLNDYGIS,VIYSDGRRTFYQDSVV,GRAKGWFDS,not detected,0/6,1/18
YKSLNSYGIS,VIYSDGRRTAYGDSVK,GRAAGTFDS,not detected,0/6,0/18
GFTLNDYGIS,VIYSDGRRTYYGDSVK,GRAAGTFWS,not detected,0/6,0/18

The last 6 entries again:

CDR-H1,CDR-H2,CDR-H3,Kd,detected,signal with controls
GYDIDEYGIS,VIYADGQRTAYQNNVK,GEQDGLMTY,not detected,0/6,0/18
GFTLNSYGIS,VIYSYGRRTFYDDSVK,GQLAGTFDS,not detected,0/6,0/18
GFDIEEYGIS,VIYADGKRAAYADSVK,GENMDIMTD,not detected,0/6,0/18
GFTLNDYGIS,VIYSDGRRTFYQDSVV,GRAKGWFDS,not detected,0/6,1/18
YKSLNSYGIS,VIYSDGRRTAYGDSVK,GRAAGTFDS,not detected,0/6,0/18
GFTLNDYGIS,VIYSDGRRTYYGDSVK,GRAAGTFWS,not detected,0/6,0/18

Where one sequence has several entries in the source, the replicates are pooled. Of ten entries with the parent sequence, four were seen in most replicates (averages 2.2 nM to 240 nM), three in one and three in none, so single entries are noisy. In the paper, a design with two or fewer of six values counts as a poor binder. Empty control strains, which show no peptide, gave a signal in 1% of pairings with all heavy chain designs; the median was 120 nM and 95% of these signals were weaker than 7.0 nM. No background was subtracted. Also given: how often the same scFv was detected with the empty control strains.

From the AlphaSeq antibody data of Li et al. 2023 (doi:10.1038/s41467-023-39022-2), copy in the FLAb collection.